Measured values: US11584714B2
Only a part of the results on these compounds is given; other tests are left out.

Biological target: Thrombin (Homo sapiens (Human), UniProt P00734)
Assay: Thrombin inhibition
Assay type: biochemical

## n1nc2c([nH]1)c1nn[nH]c1c1nn[nH]c21
  Thrombin Ki (μM): No Activity
